Measured values reported in ChEMBL document CHEMBL4145661, “H2O2/Peroxynitrite-Activated Hydroxamic Acid HDAC Inhibitor Prodrugs Show Antileukemic Activities against AML Cells” (ACS Med Chem Lett, 2018).

By UniProt entry, the sequences of proteins in these tests, tags left out. Where a name states a change or a piece, a line headed by the entry shows the natural chain unless it says otherwise.
UniProt O15379: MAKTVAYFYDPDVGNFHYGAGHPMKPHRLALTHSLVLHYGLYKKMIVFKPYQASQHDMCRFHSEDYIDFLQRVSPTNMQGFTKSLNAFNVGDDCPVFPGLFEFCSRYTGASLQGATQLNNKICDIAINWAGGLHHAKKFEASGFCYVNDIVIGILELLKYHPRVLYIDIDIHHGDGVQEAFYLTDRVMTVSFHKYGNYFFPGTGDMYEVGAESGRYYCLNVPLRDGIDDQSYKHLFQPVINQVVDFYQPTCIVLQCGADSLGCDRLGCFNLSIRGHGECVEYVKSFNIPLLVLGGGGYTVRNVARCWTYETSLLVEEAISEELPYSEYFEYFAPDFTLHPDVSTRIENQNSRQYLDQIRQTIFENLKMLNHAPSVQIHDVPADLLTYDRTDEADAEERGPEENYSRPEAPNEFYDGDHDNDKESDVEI
UniProt Q9UBN7: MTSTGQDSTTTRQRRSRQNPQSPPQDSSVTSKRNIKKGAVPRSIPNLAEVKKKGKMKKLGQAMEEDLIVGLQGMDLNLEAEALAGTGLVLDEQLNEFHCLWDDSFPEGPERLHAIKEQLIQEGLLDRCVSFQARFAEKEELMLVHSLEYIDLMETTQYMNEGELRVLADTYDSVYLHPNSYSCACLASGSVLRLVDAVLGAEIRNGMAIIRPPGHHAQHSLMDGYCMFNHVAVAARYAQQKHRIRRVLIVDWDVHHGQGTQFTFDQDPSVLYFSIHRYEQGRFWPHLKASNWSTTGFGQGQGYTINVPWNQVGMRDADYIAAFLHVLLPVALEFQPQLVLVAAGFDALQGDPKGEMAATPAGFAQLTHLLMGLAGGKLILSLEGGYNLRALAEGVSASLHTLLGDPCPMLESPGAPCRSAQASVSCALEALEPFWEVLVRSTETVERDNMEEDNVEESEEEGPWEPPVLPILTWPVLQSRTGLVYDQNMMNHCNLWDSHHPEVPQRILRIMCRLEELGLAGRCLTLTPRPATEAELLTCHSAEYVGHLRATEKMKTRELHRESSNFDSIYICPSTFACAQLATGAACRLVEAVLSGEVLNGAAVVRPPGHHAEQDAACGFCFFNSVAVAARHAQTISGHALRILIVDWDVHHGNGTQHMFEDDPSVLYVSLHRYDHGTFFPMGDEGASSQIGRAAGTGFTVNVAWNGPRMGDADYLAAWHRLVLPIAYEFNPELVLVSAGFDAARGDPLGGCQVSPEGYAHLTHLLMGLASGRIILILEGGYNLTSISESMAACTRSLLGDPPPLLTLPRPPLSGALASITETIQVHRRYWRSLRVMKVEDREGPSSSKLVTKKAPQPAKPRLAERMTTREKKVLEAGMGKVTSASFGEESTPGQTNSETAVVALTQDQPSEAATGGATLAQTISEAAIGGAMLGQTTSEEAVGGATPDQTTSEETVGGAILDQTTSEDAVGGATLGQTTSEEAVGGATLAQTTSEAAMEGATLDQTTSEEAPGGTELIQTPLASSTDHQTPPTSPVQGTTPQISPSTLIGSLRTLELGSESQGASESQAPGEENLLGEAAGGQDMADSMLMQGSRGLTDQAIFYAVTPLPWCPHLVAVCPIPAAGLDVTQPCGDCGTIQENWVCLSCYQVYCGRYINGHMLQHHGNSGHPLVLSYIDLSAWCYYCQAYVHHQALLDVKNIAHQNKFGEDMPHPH
UniProt Q92769: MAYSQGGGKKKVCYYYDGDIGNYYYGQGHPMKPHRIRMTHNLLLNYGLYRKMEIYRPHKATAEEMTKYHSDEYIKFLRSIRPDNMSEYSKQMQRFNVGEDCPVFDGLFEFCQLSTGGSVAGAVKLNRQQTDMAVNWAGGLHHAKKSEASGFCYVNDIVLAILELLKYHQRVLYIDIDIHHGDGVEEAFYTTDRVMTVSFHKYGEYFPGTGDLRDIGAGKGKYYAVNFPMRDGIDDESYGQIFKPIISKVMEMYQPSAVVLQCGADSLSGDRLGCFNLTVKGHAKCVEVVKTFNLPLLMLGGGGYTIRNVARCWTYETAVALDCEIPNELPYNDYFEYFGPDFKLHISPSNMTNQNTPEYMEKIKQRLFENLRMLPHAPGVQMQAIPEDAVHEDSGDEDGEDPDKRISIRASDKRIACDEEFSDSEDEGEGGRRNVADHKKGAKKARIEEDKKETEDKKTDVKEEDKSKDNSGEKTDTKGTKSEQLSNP
UniProt Q9UQL6: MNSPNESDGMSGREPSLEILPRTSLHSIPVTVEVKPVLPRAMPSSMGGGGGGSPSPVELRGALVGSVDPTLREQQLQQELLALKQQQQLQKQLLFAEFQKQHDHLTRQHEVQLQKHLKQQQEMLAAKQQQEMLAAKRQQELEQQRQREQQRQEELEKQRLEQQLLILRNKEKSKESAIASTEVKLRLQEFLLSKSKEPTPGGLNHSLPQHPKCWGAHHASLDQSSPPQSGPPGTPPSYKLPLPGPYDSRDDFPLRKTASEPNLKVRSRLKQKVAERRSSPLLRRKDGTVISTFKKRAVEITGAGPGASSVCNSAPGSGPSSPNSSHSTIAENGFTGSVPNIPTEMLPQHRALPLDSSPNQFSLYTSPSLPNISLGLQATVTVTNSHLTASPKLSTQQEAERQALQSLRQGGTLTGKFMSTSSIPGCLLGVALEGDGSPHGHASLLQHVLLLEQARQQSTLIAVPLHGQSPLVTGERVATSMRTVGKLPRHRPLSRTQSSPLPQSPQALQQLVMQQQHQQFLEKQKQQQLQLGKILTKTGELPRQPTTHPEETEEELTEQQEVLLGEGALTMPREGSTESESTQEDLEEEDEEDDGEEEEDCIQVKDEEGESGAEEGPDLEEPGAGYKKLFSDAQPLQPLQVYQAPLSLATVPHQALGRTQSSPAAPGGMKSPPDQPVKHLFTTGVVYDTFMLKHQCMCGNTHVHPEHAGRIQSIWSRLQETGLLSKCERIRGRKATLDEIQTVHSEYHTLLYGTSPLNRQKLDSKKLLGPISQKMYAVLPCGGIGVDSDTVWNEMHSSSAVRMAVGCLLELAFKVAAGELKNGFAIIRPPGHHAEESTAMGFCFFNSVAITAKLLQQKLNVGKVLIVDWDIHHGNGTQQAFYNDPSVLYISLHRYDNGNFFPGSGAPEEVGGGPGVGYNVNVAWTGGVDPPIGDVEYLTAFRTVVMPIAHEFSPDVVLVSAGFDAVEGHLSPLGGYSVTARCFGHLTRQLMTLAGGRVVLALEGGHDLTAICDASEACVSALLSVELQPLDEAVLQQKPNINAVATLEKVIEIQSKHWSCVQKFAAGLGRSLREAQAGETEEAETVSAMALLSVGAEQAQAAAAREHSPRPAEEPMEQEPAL
UniProt Q8WUI4: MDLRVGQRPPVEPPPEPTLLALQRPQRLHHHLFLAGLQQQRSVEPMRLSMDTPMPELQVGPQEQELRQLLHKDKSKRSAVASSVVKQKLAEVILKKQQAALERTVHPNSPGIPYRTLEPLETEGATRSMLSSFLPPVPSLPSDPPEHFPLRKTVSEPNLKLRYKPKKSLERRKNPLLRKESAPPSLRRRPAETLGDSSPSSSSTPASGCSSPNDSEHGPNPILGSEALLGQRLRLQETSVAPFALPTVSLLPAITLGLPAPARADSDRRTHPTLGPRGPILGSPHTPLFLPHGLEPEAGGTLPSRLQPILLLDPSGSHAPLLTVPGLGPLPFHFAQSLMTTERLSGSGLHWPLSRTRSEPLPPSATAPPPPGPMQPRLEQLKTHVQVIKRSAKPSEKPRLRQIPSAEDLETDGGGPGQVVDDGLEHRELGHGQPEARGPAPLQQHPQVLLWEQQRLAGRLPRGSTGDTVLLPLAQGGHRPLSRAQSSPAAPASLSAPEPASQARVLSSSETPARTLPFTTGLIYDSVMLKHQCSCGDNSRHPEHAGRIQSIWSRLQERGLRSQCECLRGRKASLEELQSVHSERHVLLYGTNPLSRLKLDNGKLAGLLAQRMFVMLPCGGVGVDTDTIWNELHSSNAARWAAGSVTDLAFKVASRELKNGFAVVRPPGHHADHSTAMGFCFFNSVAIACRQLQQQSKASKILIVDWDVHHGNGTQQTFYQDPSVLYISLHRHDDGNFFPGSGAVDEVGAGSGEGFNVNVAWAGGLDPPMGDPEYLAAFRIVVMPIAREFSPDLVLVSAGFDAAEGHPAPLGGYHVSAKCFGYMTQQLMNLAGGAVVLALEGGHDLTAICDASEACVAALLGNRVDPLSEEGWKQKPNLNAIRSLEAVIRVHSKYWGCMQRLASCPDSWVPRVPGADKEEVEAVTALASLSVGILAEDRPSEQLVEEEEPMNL
UniProt Q9BY41: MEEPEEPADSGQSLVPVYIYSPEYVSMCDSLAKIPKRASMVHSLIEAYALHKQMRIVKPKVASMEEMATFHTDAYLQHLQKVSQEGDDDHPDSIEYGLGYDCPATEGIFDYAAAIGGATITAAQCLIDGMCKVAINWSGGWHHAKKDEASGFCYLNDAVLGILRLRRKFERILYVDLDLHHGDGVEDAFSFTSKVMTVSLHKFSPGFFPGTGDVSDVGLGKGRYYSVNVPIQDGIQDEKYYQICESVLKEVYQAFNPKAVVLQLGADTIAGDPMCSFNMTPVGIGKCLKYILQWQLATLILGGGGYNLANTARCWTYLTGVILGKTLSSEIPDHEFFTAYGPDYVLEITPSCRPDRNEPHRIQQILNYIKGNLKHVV
UniProt P56524: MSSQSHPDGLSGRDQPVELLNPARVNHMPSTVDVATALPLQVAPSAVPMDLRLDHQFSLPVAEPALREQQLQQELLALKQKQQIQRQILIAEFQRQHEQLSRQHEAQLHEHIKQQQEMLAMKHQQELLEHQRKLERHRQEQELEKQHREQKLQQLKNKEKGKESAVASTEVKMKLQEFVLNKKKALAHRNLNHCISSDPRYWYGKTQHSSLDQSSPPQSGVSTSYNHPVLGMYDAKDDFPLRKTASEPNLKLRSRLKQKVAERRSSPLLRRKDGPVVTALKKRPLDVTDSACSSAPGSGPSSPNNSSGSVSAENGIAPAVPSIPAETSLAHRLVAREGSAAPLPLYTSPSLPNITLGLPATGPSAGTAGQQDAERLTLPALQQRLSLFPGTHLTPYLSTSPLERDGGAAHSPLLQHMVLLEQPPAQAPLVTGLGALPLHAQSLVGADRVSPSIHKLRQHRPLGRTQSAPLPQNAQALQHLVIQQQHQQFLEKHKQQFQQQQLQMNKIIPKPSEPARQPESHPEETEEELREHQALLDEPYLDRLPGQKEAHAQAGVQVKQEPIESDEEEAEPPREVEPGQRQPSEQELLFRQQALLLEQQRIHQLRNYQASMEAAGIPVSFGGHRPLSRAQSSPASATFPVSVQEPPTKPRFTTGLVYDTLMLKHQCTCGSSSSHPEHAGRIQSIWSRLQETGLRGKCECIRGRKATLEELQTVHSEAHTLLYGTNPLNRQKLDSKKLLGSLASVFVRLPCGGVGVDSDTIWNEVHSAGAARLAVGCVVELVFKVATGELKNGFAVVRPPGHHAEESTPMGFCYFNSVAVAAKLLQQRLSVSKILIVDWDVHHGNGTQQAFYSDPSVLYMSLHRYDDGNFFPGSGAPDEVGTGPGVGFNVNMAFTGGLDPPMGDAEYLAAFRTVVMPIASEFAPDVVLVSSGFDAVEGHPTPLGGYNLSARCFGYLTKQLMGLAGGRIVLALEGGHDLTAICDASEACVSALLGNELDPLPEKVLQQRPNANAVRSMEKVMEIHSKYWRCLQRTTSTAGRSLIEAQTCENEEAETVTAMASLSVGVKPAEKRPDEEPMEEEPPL
UniProt Q969S8: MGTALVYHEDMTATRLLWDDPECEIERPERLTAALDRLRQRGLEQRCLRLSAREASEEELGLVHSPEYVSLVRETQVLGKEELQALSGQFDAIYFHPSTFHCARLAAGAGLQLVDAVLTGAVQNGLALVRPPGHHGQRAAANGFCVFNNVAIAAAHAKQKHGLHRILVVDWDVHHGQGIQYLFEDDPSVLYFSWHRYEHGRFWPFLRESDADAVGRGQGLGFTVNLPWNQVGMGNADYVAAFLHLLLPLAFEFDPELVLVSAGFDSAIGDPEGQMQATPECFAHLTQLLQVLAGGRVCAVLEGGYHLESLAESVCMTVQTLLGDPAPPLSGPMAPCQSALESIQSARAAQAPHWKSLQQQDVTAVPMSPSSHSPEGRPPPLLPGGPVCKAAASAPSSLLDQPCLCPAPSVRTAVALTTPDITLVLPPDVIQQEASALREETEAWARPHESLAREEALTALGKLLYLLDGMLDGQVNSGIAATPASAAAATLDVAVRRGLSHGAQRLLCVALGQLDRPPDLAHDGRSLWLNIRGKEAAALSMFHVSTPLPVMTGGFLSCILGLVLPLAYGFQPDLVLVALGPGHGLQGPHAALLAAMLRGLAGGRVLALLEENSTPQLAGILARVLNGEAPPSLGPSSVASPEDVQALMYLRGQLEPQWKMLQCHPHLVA

Legend:
[1] = target: T1, Histone deacetylase (Homo sapiens) (UniProt Q13547+O15379+Q9UBN7+Q92769+Q9UQL6+Q8WUI4+Q9BY41+Q96DB2+P56524+Q9UKV0+Q969S8); test: (§1) Inhibition of HDAC in human MV4-11 cells assessed as ratio of acetylation of histone H4 to GAPDH protein level at 2.5 uM pretreated with SOD for 2 hrs followed by compound addition measured after 24 hrs by Western blot analysis relative to (4-(((8-oxo-8-(phenylamino)octanamido)oxy)methyl)phenyl)boronic acid alone; assay type: cell-based
U-937 = test: Cytotoxicity against human U937 cells assessed as reduction in cell viability after 72 hrs by MTT assay; assay type: functional, cell-based
[2] = target: T1, Histone deacetylase (Homo sapiens); test: Inhibition of HDAC in human MV4-11 cells assessed as increase in acetylation of histone H4 at 1 uM after 6 hrs by Western blot analysis relative to SAHA; assay type: cell-based
[3] = target: T1, Histone deacetylase (Homo sapiens); test: Inhibition of HDAC in human MV4-11 cells assessed as increase in acetylation of histone H4 at 2.5 uM after 6 hrs by Western blot analysis relative to SAHA; assay type: cell-based
[4] = target: T1, Histone deacetylase (Homo sapiens); test: Inhibition of HDAC in human MV4-11 cells assessed as increase in acetylation of histone H4 at 5 uM after 6 hrs by Western blot analysis relative to SAHA; assay type: cell-based
[5] = target: T1, Histone deacetylase (Homo sapiens); test: Inhibition of HDAC in human MV4-11 cells assessed as increase in acetylation of histone H4 at 10 uM after 6 hrs by Western blot analysis relative to SAHA; assay type: cell-based
[6] = target: T1, Histone deacetylase (Homo sapiens); test: Inhibition of HDAC in human MV4-11 cells assessed as increase in acetylation of alpha-tubulin at 1 uM after 6 hrs by Western blot analysis relative to SAHA; assay type: cell-based
[7] = target: T1, Histone deacetylase (Homo sapiens); test: Inhibition of HDAC in human MV4-11 cells assessed as increase in acetylation of alpha-tubulin at 2.5 uM after 6 hrs by Western blot analysis relative to SAHA; assay type: cell-based
[8] = target: T1, Histone deacetylase (Homo sapiens); test: Inhibition of HDAC in human MV4-11 cells assessed as increase in acetylation of alpha-tubulin at 5 uM after 6 hrs by Western blot analysis relative to SAHA; assay type: cell-based
[9] = target: T1, Histone deacetylase (Homo sapiens); test: Inhibition of HDAC in human MV4-11 cells assessed as increase in acetylation of alpha-tubulin at 10 uM after 6 hrs by Western blot analysis relative to SAHA; assay type: cell-based
[10] = target: T1, Histone deacetylase (Homo sapiens); test: as §1, with “BSO/LPS” for “SOD”; assay type: cell-based
[11] = target: T1, Histone deacetylase (Homo sapiens); test: as §1, with “catalase” for “SOD”; assay type: cell-based
[12] = target: T1, Histone deacetylase (Homo sapiens); test: as §1, with “alpha-tubulin” for “histone H4”, “BSO/LPS” for “SOD”; assay type: cell-based
[13] = target: T1, Histone deacetylase (Homo sapiens); test: as §1, with “alpha-tubulin” for “histone H4”, “catalase” for “SOD”; assay type: cell-based
[14] = target: T1, Histone deacetylase (Homo sapiens); test: as §1, with “alpha-tubulin” for “histone H4”; assay type: cell-based

Row | fold change (FC) [1] | fold change (FC) [2] | fold change (FC) [3] | fold change (FC) [4] | fold change (FC) [5] | fold change (FC) [6] | fold change (FC) [7] | fold change (FC) [8] | fold change (FC) [9] | fold change (FC) [10] | fold change (FC) [11] | fold change (FC) [12] | fold change (FC) [13] | fold change (FC) [14] | SMILES | Activity (U-937)
1 | 1.7 | 0.02 | 0.03 | 0.09 | 0.27 | 0.06 | 0.17 | 0.35 | 0.53 | 4.4 | 0.4 | 1.4 | 0.3 | 1.2 | O=C(CCCCCCC(=O)Nc1ccccc1)NOCc1ccc(B(O)O)cc1 | Dose-dependent effect
2 |  | 0.26 | 0.56 | 2.09 | 2.15 | 0.27 | 0.59 | 0.8 | 0.9 |  |  |  |  |  | COc1cc(/C=C/C(=O)N2CCC=CC2=O)cc(OC)c1OCCCCCCC(=O)NOCc1ccc(B(O)O)cc1 | Dose-dependent effect
